# Experimental data from PMC12153628.
# By UniProt entry, the sequences of proteins in these tests, tags left out.
# UniProt Q07817, whole entry: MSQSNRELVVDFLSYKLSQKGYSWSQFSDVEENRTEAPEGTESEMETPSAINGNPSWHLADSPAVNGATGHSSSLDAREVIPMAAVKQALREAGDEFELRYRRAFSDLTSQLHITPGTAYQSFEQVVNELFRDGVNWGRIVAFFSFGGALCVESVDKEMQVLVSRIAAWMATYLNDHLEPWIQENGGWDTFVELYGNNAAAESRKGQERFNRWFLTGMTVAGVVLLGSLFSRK
# Target: BCL-XL-glutathione-S-transferase (GST) fusion protein (human) (UniProt Q07817)
# Assay: fluorescence polarisation; BIM BH3 peptides tested for their BCL-XL binding affinity, as described previously [16]
substance,measurement,value
wild-type BIM BH3 peptide,binding affinity,4 nM
